By UniProt entry, the sequences of proteins in these tests, tags left out. Where a name states a change or a piece, a line headed by the entry shows the natural chain unless it says otherwise.
UniProt Q96L73: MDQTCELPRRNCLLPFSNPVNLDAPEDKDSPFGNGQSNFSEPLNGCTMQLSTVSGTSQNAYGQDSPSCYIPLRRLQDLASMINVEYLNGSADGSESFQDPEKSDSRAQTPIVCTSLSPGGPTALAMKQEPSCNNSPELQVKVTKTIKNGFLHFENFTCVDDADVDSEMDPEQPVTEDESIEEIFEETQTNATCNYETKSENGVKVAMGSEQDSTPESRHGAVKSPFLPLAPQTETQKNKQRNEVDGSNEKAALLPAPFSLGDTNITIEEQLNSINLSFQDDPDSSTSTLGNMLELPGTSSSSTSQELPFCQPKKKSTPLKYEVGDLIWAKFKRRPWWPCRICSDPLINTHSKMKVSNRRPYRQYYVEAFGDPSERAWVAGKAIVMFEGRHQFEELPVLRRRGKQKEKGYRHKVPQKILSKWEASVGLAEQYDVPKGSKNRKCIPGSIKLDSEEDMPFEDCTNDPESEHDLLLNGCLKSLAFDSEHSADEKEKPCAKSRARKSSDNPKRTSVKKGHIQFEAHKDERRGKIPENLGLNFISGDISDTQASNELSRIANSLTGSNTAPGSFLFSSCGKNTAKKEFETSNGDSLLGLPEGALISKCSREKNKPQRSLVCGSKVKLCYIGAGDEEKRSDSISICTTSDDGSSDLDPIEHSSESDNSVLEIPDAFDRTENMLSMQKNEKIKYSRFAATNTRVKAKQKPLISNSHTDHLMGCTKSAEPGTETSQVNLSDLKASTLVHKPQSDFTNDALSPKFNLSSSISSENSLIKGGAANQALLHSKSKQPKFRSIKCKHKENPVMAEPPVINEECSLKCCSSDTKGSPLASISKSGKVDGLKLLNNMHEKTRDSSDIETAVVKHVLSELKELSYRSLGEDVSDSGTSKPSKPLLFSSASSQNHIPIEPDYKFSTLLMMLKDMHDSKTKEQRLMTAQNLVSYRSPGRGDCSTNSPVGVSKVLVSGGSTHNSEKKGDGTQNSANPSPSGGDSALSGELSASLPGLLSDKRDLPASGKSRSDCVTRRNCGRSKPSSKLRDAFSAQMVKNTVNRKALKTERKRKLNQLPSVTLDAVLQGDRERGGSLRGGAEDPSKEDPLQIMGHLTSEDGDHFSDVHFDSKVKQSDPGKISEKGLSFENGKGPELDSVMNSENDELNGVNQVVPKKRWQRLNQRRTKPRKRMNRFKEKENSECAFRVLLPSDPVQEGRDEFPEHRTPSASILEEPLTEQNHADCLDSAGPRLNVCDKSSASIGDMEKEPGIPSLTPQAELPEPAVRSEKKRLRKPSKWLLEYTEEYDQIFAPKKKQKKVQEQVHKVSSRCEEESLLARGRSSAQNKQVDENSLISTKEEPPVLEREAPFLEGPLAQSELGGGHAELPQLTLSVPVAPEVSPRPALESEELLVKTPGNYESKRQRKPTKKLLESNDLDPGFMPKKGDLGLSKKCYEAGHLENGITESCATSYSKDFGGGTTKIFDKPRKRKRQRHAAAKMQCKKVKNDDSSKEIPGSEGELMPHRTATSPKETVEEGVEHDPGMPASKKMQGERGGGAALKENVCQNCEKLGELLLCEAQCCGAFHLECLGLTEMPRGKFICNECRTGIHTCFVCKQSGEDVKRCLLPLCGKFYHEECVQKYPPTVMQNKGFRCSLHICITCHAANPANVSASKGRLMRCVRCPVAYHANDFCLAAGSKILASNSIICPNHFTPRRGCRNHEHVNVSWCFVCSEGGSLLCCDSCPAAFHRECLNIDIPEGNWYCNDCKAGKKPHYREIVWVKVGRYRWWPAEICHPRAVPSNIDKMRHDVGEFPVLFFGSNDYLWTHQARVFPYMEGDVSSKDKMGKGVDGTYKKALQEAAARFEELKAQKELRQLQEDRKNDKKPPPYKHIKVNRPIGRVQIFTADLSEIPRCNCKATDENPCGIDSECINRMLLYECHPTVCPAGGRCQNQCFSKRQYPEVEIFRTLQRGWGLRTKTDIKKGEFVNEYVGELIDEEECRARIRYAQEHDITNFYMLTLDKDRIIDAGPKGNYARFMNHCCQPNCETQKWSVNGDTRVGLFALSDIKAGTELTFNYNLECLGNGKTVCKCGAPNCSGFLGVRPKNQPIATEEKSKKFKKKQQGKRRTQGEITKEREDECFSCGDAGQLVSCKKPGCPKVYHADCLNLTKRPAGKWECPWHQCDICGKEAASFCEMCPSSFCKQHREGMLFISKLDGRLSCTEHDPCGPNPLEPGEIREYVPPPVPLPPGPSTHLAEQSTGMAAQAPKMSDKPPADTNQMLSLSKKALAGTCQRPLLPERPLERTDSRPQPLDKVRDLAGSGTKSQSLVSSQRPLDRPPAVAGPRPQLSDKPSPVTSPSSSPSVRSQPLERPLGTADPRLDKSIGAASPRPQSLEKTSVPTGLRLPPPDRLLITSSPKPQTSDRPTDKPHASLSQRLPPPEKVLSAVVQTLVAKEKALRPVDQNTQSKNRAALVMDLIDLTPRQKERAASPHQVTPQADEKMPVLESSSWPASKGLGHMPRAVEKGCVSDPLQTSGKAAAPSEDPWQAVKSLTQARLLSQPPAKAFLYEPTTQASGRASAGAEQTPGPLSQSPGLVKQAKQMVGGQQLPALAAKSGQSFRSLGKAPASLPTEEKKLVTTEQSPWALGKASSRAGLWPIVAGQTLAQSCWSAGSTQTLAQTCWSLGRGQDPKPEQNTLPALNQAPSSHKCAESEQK

According to ChEMBL document CHEMBL5338706, “Discovery of a potent and selective proteolysis targeting chimera (PROTAC) degrader of NSD3 histone methyltransferase” (Eur J Med Chem, 2022):

How the values were obtained:
Assay type in all cases: cell-based
[1] = target: T1, Histone-lysine N-methyltransferase NSD3 (Homo sapiens) (UniProt Q9BZ95); experiment: Induction of NSD3 degradation in human NCI-H1703 cells at 3 uM incubated for 72 hrs by measuring fold change by Western blot analysis relative to control
T1 sequence (whole entry): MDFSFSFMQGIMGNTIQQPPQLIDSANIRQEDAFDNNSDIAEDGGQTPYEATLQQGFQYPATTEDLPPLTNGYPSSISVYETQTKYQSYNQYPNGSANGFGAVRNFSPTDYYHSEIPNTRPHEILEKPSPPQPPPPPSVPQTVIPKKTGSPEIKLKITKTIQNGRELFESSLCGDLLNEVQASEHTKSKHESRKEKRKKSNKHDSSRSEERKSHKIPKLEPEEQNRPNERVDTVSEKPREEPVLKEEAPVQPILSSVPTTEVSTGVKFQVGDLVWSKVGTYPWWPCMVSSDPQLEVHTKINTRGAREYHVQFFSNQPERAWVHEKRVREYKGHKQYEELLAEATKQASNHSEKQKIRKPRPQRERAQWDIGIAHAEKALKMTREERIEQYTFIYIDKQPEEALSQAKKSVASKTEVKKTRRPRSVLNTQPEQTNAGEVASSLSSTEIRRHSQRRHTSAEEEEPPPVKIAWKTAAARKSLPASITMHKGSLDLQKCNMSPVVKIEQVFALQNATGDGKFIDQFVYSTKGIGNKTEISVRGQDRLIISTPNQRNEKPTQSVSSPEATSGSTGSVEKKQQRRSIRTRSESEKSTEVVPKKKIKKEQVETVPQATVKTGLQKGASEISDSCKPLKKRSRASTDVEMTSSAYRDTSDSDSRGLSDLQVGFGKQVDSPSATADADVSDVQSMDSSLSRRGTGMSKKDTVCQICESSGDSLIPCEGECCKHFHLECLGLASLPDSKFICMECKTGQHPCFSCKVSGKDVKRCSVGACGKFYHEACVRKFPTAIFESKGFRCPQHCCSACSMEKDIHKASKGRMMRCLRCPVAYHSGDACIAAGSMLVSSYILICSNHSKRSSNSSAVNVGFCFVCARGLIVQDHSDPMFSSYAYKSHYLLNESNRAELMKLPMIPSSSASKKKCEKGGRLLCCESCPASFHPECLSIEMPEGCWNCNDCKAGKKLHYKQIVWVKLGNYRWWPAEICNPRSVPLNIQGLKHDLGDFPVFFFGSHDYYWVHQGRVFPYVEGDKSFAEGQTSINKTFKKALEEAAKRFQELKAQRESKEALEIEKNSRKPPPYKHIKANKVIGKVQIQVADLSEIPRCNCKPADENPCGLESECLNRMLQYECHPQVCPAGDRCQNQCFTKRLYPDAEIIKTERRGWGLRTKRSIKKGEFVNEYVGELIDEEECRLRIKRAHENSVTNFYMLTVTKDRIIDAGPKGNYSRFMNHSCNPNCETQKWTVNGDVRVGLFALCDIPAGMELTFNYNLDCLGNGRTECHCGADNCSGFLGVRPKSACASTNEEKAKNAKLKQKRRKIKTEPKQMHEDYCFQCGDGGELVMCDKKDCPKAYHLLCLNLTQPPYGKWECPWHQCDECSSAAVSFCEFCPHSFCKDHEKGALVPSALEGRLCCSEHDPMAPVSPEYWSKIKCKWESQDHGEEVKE

[2] = target: T1, Histone-lysine N-methyltransferase NSD3 (Homo sapiens); experiment: Induction of NSD3 degradation in human NCI-H1703 cells at 5 uM incubated for 72 hrs by measuring fold change by Western blot analysis relative to control
[3] = target: T1, Histone-lysine N-methyltransferase NSD3 (Homo sapiens); experiment: Induction of NSD3 degradation in human NCI-H1703 cells at 7.5 uM incubated for 72 hrs by measuring fold change by Western blot analysis relative to control
[4] = target: T2, Histone-lysine N-methyltransferase NSD2 (Homo sapiens) (UniProt O96028); experiment: Induction of NSD2 degradation in human NCI-H1703 cells at 3 uM incubated for 72 hrs by measuring fold change by Western blot analysis relative to control
T2 sequence (whole entry): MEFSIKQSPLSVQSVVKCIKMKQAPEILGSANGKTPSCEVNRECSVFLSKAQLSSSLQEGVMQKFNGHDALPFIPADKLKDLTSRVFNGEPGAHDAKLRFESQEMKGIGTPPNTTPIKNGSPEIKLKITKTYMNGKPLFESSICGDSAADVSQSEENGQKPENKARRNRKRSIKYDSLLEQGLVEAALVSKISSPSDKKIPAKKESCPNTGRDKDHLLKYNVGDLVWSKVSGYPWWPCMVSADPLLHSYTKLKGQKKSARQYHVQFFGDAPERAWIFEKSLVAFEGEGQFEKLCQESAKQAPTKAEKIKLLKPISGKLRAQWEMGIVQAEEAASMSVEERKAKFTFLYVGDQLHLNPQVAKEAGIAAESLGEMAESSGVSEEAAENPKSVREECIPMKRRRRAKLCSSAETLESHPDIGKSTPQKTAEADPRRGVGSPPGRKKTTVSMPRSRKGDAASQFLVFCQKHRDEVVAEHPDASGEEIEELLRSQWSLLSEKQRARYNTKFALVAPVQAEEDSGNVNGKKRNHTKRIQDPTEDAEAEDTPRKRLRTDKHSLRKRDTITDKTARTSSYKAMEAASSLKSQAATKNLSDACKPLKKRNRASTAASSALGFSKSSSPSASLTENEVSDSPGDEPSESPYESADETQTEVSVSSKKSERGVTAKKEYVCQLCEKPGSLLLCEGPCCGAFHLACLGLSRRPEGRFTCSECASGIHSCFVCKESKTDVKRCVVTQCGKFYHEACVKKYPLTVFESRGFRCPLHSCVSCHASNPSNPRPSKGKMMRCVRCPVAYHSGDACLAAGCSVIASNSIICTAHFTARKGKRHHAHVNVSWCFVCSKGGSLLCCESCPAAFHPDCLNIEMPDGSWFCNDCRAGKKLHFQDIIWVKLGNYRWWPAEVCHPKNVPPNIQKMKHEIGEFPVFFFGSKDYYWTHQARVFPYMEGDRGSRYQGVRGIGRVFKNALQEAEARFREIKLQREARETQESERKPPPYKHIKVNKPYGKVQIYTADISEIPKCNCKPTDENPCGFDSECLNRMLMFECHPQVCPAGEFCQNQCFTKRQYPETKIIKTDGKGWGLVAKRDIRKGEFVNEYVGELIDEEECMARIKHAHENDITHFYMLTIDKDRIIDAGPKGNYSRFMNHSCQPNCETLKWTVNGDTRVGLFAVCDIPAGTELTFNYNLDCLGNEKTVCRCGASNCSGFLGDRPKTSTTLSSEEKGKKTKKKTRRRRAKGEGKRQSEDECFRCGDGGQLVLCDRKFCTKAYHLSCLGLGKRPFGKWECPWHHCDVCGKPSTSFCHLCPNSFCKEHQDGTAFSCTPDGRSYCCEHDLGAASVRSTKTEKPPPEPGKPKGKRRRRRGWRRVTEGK

[5] = target: T2, Histone-lysine N-methyltransferase NSD2 (Homo sapiens); experiment: Induction of NSD2 degradation in human NCI-H1703 cells at 5 uM incubated for 72 hrs by measuring fold change by Western blot analysis relative to control
[6] = target: T2, Histone-lysine N-methyltransferase NSD2 (Homo sapiens); experiment: Induction of NSD2 degradation in human NCI-H1703 cells at 7.5 uM incubated for 72 hrs by measuring fold change by Western blot analysis relative to control
[7] = target: Histone-lysine N-methyltransferase, H3 lysine-36 specific (Homo sapiens) (UniProt Q96L73); experiment: Induction of NSD1 degradation in human NCI-H1703 cells at 3 uM incubated for 72 hrs by measuring fold change by Western blot analysis relative to control
[8] = target: Histone-lysine N-methyltransferase, H3 lysine-36 specific (Homo sapiens) (UniProt Q96L73); experiment: Induction of NSD1 degradation in human NCI-H1703 cells at 5 uM incubated for 72 hrs by measuring fold change by Western blot analysis relative to control
[9] = target: Histone-lysine N-methyltransferase, H3 lysine-36 specific (Homo sapiens) (UniProt Q96L73); experiment: Induction of NSD1 degradation in human NCI-H1703 cells at 7.5 uM incubated for 72 hrs by measuring fold change by Western blot analysis relative to control
[10] = target: T1, Histone-lysine N-methyltransferase NSD3 (Homo sapiens); experiment: Induction of NSD3 degradation in human A549 cells at 3 uM incubated for 72 hrs by measuring fold change by Western blot analysis relative to control
[11] = target: T1, Histone-lysine N-methyltransferase NSD3 (Homo sapiens); experiment: Induction of NSD3 degradation in human A549 cells at 5 uM incubated for 72 hrs by measuring fold change by Western blot analysis relative to control
[12] = target: T1, Histone-lysine N-methyltransferase NSD3 (Homo sapiens); experiment: Induction of NSD3 degradation in human A549 cells at 7.5 uM incubated for 72 hrs by measuring fold change by Western blot analysis relative to control
[13] = target: T2, Histone-lysine N-methyltransferase NSD2 (Homo sapiens); experiment: Induction of NSD2 degradation in human A549 cells at 3 uM incubated for 72 hrs by measuring fold change by Western blot analysis relative to control
[14] = target: T2, Histone-lysine N-methyltransferase NSD2 (Homo sapiens); experiment: Induction of NSD2 degradation in human A549 cells at 5 uM incubated for 72 hrs by measuring fold change by Western blot analysis relative to control
[15] = target: T2, Histone-lysine N-methyltransferase NSD2 (Homo sapiens); experiment: Induction of NSD2 degradation in human A549 cells at 7.5 uM incubated for 72 hrs by measuring fold change by Western blot analysis relative to control
[16] = target: Histone-lysine N-methyltransferase, H3 lysine-36 specific (Homo sapiens) (UniProt Q96L73); experiment: Induction of NSD1 degradation in human A549 cells at 3 uM incubated for 72 hrs by measuring fold change by Western blot analysis relative to control
[17] = target: Histone-lysine N-methyltransferase, H3 lysine-36 specific (Homo sapiens) (UniProt Q96L73); experiment: Induction of NSD1 degradation in human A549 cells at 5 uM incubated for 72 hrs by measuring fold change by Western blot analysis relative to control
[18] = target: Histone-lysine N-methyltransferase, H3 lysine-36 specific (Homo sapiens) (UniProt Q96L73); experiment: Induction of NSD1 degradation in human A549 cells at 7.5 uM incubated for 72 hrs by measuring fold change by Western blot analysis relative to control
[19] = target: T1, Histone-lysine N-methyltransferase NSD3 (Homo sapiens); experiment: Induction of NSD3 degradation in human NCI-H1703 cells assessed as reduction in H3K36me3 methylation at 3 uM incubated for 72 hrs by measuring fold change by Western blot analysis relative to control
[20] = target: T1, Histone-lysine N-methyltransferase NSD3 (Homo sapiens); experiment: Induction of NSD3 degradation in human NCI-H1703 cells assessed as reduction in H3K36me3 methylation at 5 uM incubated for 72 hrs by measuring fold change by Western blot analysis relative to control
[21] = target: T1, Histone-lysine N-methyltransferase NSD3 (Homo sapiens); experiment: Induction of NSD3 degradation in human NCI-H1703 cells assessed as reduction in H3K36me3 methylation at 7.5 uM incubated for 72 hrs by measuring fold change by Western blot analysis relative to control
[22] = target: T1, Histone-lysine N-methyltransferase NSD3 (Homo sapiens); experiment: Induction of NSD3 degradation in human NCI-H1703 cells assessed as reduction in H3K36me2 methylation at 3 uM incubated for 72 hrs by measuring fold change by Western blot analysis relative to control
[23] = target: T1, Histone-lysine N-methyltransferase NSD3 (Homo sapiens); experiment: Induction of NSD3 degradation in human NCI-H1703 cells assessed as reduction in H3K36me2 methylation at 5 uM incubated for 72 hrs by measuring fold change by Western blot analysis relative to control
[24] = target: T1, Histone-lysine N-methyltransferase NSD3 (Homo sapiens); experiment: Induction of NSD3 degradation in human NCI-H1703 cells assessed as reduction in H3K36me2 methylation at 7.5 uM incubated for 72 hrs by measuring fold change by Western blot analysis relative to control
[25] = target: T1, Histone-lysine N-methyltransferase NSD3 (Homo sapiens); experiment: Induction of NSD3 degradation in human A549 cells assessed as reduction in H3K36me3 methylation at 3 uM incubated for 72 hrs by measuring fold change by Western blot analysis relative to control
[26] = target: T1, Histone-lysine N-methyltransferase NSD3 (Homo sapiens); experiment: Induction of NSD3 degradation in human A549 cells assessed as reduction in H3K36me3 methylation at 5 uM incubated for 72 hrs by measuring fold change by Western blot analysis relative to control
[27] = target: T1, Histone-lysine N-methyltransferase NSD3 (Homo sapiens); experiment: Induction of NSD3 degradation in human A549 cells assessed as reduction in H3K36me3 methylation at 7.5 uM incubated for 72 hrs by measuring fold change by Western blot analysis relative to control
[28] = target: T1, Histone-lysine N-methyltransferase NSD3 (Homo sapiens); experiment: Induction of NSD3 degradation in human A549 cells assessed as reduction in H3K36me2 methylation at 3 uM incubated for 72 hrs by measuring fold change by Western blot analysis relative to control
[29] = target: T1, Histone-lysine N-methyltransferase NSD3 (Homo sapiens); experiment: Induction of NSD3 degradation in human A549 cells assessed as reduction in H3K36me2 methylation at 5 uM incubated for 72 hrs by measuring fold change by Western blot analysis relative to control
[30] = target: T1, Histone-lysine N-methyltransferase NSD3 (Homo sapiens); experiment: Induction of NSD3 degradation in human A549 cells assessed as reduction in H3K36me2 methylation at 7.5 uM incubated for 72 hrs by measuring fold change by Western blot analysis relative to control

Cc1cc(CNCCCCCCCCCCC(=O)N[C@H](C(=O)N2C[C@H](O)C[C@H]2C(=O)N[C@@H](C)c2ccc(-c3scnc3C)cc2)C(C)(C)C)cc(C)c1-c1ncn(C)c1-c1ccnc2cc(F)ccc12
fold change (FC) [1]: 0.8 | fold change (FC) [2]: 0.8 | fold change (FC) [3]: 0.75 | fold change (FC) [4]: 0.94 | fold change (FC) [5]: 0.8 | fold change (FC) [6]: 0.92 | fold change (FC) [7]: 1 | fold change (FC) [8]: 1.28 | fold change (FC) [9]: 1.3 | fold change (FC) [10]: 0.6 | fold change (FC) [11]: 0.52 | fold change (FC) [12]: 0.51 | fold change (FC) [13]: 0.92 | fold change (FC) [14]: 0.87 | fold change (FC) [15]: 0.85 | fold change (FC) [16]: 1.02 | fold change (FC) [17]: 0.96 | fold change (FC) [18]: 0.92 | fold change (FC) [19]: 0.92 | fold change (FC) [20]: 0.75 | fold change (FC) [21]: 0.68 | fold change (FC) [22]: 1.02 | fold change (FC) [23]: 1.09 | fold change (FC) [24]: 0.94 | fold change (FC) [25]: 0.96 | fold change (FC) [26]: 0.79 | fold change (FC) [27]: 0.76 | fold change (FC) [28]: 1.15 | fold change (FC) [29]: 0.96 | fold change (FC) [30]: 0.9
